Where two headings read alike, the source gives them in different places.
Molecular target: PI3k δ (Homo sapiens, UniProt O00329)
Conditions: read-out: PI3k δ Ki

Sequences of proteins named here, by UniProt entry; tags and fusion partners are left off. A change or cut given only in a name is not applied to a line headed by its entry.
UniProt O00329, whole entry: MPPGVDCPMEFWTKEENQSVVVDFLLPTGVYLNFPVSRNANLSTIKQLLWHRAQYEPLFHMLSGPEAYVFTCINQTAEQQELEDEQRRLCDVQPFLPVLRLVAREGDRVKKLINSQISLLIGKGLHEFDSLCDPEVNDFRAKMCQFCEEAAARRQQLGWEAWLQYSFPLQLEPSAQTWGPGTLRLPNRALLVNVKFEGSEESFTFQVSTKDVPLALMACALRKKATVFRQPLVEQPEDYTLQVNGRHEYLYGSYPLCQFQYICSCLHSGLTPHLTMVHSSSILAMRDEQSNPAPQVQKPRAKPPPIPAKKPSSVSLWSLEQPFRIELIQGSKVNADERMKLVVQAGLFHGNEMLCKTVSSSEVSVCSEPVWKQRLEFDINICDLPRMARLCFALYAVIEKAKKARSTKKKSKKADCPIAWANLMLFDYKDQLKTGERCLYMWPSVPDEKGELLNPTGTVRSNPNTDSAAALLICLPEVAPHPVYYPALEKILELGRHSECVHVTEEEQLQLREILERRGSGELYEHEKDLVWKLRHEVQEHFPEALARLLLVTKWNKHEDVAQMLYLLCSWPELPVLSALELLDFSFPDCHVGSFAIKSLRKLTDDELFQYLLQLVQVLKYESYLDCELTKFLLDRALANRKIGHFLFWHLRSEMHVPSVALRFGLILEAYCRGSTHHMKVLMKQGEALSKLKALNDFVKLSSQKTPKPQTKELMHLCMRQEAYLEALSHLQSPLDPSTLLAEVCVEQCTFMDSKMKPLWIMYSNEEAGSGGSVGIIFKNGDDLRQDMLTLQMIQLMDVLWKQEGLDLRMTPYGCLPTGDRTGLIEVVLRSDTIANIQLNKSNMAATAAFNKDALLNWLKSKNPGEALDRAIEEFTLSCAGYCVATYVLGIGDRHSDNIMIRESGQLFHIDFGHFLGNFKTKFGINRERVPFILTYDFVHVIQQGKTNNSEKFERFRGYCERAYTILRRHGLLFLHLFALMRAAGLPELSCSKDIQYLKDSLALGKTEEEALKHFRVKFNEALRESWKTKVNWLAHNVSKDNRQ
UniProt P27986, whole entry partner: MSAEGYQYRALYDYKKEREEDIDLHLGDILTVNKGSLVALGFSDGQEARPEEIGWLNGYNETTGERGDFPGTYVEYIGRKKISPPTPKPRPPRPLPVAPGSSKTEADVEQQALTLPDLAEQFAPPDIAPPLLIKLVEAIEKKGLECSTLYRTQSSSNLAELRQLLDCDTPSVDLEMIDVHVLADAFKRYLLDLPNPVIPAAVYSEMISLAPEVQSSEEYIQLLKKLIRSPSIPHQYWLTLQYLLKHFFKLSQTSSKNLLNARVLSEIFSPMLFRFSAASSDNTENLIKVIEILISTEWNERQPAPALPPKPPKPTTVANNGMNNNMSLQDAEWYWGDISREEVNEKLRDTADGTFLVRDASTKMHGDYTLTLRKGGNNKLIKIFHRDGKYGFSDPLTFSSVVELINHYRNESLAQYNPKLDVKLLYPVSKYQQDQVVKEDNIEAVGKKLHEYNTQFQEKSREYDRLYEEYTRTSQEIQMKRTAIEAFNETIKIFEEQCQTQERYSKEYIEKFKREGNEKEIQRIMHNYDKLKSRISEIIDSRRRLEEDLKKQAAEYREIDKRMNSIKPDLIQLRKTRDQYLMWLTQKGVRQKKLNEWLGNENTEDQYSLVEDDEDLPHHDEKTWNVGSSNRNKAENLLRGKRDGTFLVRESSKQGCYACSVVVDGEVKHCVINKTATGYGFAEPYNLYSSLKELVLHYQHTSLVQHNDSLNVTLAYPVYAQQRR

| SMILES | Ki [µM] | Ki (tested form: racemic mixture of the (1R) and (1S) ena) [µM] |
| --- | --- | --- |
| CC(Nc1ncnc(N)c1C#N)c1nc2ncccc2n1-c1cc(F)cc(F)c1 (centres unmarked) | 0.344 |  |
| CC(Nc1ncnc(N)c1C#N)c1nc2cnccc2n1-c1cc(F)cc(F)c1 (centres unmarked) |  | 11.1 |

Source: patent publication US8575183B2, “Heterocyclic compounds and their uses” (priority 2010, dated 2013)
